{"source": "paper PMC1334386", "about": "(PLoS Biology, 2006)", "system": "HAUSP TRAF-like domain (residues 1–206)", "assay": "in vitro competition assay using gel filtration chromatography, MDM2 versus p53", "type": "binding", "conditions": "10-fold molar equivalence of p53 (351–382) preincubated with HAUSP 5 min at 4 °C, then one molar equivalence of MDM2 (208–289) 45 min at 4 °C, SDS-PAGE/Coomassie", "method": "To test this hypothesis, we performed an in vitro competition assay using gel filtration chromatography.\nSize-exclusion chromatography (gel filtration), using a Superdex-200 column (10/30, Amersham Pharmacia Biotech, Piscataway, New Jersey, United States), was employed to carry out all the in vitro binding assays. Proteins subjected to binding tests were incubated at 4 °C for at least 45 min to allow equilibrium to be reached. The flow rate was 0.5 ml/min, and the buffer contained 25 mM Tris (pH 8.0), 100 mM NaCl, and 2 mM DTT. All fractions were collected at 0.5 ml each. Aliquots of relevant fractions were mixed with SDS sample buffer and subjected to SDS-polyacrylamide gel electrophoresis. The proteins were visualized by Coomassie Blue staining. The column was calibrated with molecular-mass standards.", "note": "“Also recorded” adds a separate entry of the source.", "data": [{"substance": "MDM2: RING-finger E3 ubiquitin ligase; here MDM2 fragments in competition with p53", "values": [{"measurement": "complex formation with HAUSP in competition", "value": "preferentially forms a stable HAUSP–MDM2 complex even in the presence of excess p53; also recorded: out-competed excess p53; also recorded: efficiently out-competes excess p53"}]}]}
